Each structure is given as a SMILES string.

Sequences of proteins named here, by UniProt entry; tags and fusion partners are left off. Residues count along the entry.
UniProt P35563, 24-483: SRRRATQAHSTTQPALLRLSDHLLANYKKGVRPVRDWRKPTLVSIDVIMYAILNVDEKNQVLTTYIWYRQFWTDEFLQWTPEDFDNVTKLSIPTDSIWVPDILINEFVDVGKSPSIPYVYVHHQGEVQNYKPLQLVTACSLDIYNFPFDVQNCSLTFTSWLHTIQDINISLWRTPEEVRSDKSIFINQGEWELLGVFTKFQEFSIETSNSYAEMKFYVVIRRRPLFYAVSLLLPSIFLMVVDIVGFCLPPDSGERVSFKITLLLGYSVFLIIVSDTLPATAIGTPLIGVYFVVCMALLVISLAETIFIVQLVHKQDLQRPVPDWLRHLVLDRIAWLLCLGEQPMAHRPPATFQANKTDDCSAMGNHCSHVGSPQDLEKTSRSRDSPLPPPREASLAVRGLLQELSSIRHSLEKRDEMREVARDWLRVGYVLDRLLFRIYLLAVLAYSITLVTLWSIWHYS

The test addresses T1, 5-HT3 receptor (Rattus norvegicus, UniProt P35563).
T1 construct: Brain cortices are obtained from male rats and a membrane fraction prepared by standard techniques; from tissue; host or cells: rat brain cortex membranes
Nature of the test: [3H]-GR65630 radioligand receptor binding assay, rat brain cortex membranes. As to conditions: 0.2 nM [3H]-GR65630. The method, then:
5-HT3 antagonism can be determined by the radioligand receptor binding assay as described herein and in the in vivo Bezold-Jarisch reflex procedure.
GR65630 binds to the 5-HT3 receptor. Brain cortices are obtained from male rats and a membrane fraction prepared by standard techniques. 0.04 mg of membrane prep is incubated with 0.2 nM [^3 H]-GR656630 for 60 minutes at 22° C. […] Membranes are filtered and washed 3 times and the filters are counted to determine [3H]-GR65630 specifically bound.*
Effect of Reference Compounds on
Kilpatrick GJ, Jones BJ and Tyers MB. Identification and distribution of 5-HT3 receptors in rat brain using radioligand binding. Nature, 330: 746-748, 1987.

For the molecule `NCCc1c[nH]c2ccc(O)cc12` [Example 5-HT], the “Hill Coefficient” value is 1.0.

Source of the values: patent US5591749A, “Imidazopyridines as serotonergic 5-HT3 -antagonists” (G. D. Searle & Co., priority 1995, dated 1997).
